Measured values taken from BindingDB's records for doi:10.1021/acschembio.5b01047 (National Institutes of Health, 2016).

Tests used:
Settings in all cases: pH 7.5
[1] = target: T1, Tyrosyl-DNA phosphodiesterase 2 (Homo sapiens, UniProt O95551); experiment: Recombinant TDP2 Assay
T1 sequence (O95551 whole entry): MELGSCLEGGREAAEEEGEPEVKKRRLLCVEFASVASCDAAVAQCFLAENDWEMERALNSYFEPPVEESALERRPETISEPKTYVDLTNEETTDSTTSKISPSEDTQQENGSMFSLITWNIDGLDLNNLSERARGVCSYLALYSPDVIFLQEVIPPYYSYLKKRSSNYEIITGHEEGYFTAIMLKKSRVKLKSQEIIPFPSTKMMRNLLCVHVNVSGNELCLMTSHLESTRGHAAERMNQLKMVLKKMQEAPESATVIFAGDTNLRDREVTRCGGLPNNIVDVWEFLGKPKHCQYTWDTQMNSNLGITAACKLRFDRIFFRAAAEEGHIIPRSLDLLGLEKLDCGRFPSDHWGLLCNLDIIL
Experimental: (§1) TDP2 reactions were carried out as described previously23 with the following modifications.

[2] = target: T2, Tyrosyl-DNA phosphodiesterase 2 (Mus musculus, UniProt Q9JJX7); experiment: Recombinant TDP2 Assay
T2 sequence (Q9JJX7 whole entry): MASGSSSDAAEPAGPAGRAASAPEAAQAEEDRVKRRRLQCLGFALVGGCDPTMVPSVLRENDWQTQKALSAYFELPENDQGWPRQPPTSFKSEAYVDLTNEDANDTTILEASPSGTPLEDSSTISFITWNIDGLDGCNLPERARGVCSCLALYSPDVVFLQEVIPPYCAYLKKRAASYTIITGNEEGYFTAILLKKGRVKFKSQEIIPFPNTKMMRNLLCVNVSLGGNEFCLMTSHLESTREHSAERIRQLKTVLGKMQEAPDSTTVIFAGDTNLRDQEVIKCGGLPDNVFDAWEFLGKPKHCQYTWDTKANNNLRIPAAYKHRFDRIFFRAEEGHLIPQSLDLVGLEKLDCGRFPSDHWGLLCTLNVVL
Experimental: as §1

[3] = target: T3, Tyrosyl-DNA phosphodiesterase 2 [E242G,S244A,Q278R,I281T,K282R,R316G,P318T,Y321CH323L] (Mus musculus, UniProt Q9JJX7, E242G/I281T/K282R/P318T/Q278R/R316G/S244A/Y321CH323L); experiment: Recombinant TDP2 Assay
T3 sequence (Q9JJX7 whole entry): T2 sequence (Q9JJX7 whole entry) with E242G, S244A, Q278R, I281T, K282R, R316G, P318T, Y321C, H323L
Experimental: as §1

[4] = target: Tyrosyl-DNA phosphodiesterase 2 [E242G,S244A,Q278R,I281T,K282R,R316G,P318T,Y321C] (Mus musculus, UniProt Q9JJX7, E242G/I281T/K282R/P318T/Q278R/R316G/S244A/Y321C); experiment: Recombinant TDP2 Assay
Experimental: as §1

[5] = target: T1, Tyrosyl-DNA phosphodiesterase 2; experiment: TDP2 Assays with Whole Cell Extracts
Experimental: Cell pellets were then resuspended in 100 uL of CelLytic M cell lysis reagent (SIGMA-Aldrich C2978). After 15 min on ice, lysates were centrifuged at 12 000g for 10 min, and supernatants were transferred to a new tube. Protein concentrations were determined using a Nanodrop spectrophotometer (Invitrogen), and whole cell extracts were stored at -80 °C. […] Reactions were terminated and samples analyzed.

O=c1nc2n(-c3ccccc3)c3ccccc3cc-2c(=O)[nH]1
IC50 [1]: 71 µM
IC50 [2]: > 111 µM
IC50 [3]: 71 µM
IC50 [4]: > 111 µM
IC50 [5]: 20 µM

Where a chain is given by its changes, count along the chain named.
